The target of assay [1] is Cyno CD33 full length, expressed on HEK293F cells (cynomolgus monkey). Briefly: flow cytometry, HEK293F cells expressing cyno CD33. For orientation: Flow cytometry measures light scatter and fluorescence of single cells or particles in a stream.
Assay [2] deals with Cyno CD33 ECD-HSA (cynomolgus monkey). Briefly: SPRi off-rate screen (IBIS MX96), mAb captured by anti-human Fc; column head prints Cyno CD33 binding KD.
In assay [3] the target is Human CD33 full length, expressed on HEK293F cells (human) (UniProt P20138). The assay can be described thus: flow cytometry, HEK293F cells expressing human CD33.
Assay [4] deals with Human CD33 ECD-HSA (human). Briefly: SPRi off-rate screen (IBIS MX96), mAb captured by anti-human Fc; column head prints KD.
The target in assay [5] is Human CD33 ECD-HSA (human). The assay can be described thus: ProteOn SPR, mAb captured by anti-human Fc, 1:1 Langmuir fit.
The target in assay [6] is Cyno CD33 ECD-HSA (cynomolgus monkey). Described as above.

A word on the koff: it is the rate constant with which the complex falls apart. Broadly, the Kd is the equilibrium constant for the complex coming apart. Read a low Kd as a tighter complex. What is called kon is a measure of how fast the partners come together. High values mean faster complex formation, low ones slower complex formation.

In assay [1], C33B56 (antibody) had an MFI at 0 nM mAb (background) of 83.3 MFI, an MFI at 0.6 nM mAb of 78.6 MFI, an MFI at 6 nM mAb of 85.9 MFI and an MFI at 60 nM mAb of 104 MFI. Also, the koff in assay [2] amounted to 0.000846 s⁻¹. In assay [3], the MFI at 0 nM mAb (background) stood at 138 MFI, the MFI at 0.6 nM mAb worked out at 112 MFI, the MFI at 6 nM mAb was determined as 79.7 MFI and the MFI at 60 nM mAb came out at 144 MFI. The koff in assay [4] stood at 0.00402 s⁻¹.
In assay [1], C33B64 (antibody) came in with an MFI at 0 nM mAb (background) of 99.8 MFI, an MFI at 0.6 nM mAb of 3100 MFI, an MFI at 6 nM mAb of 9690 MFI and an MFI at 60 nM mAb of 21100 MFI. In assay [5], this substance had a Kd of 5.1 nM, a koff of 0.00221 s⁻¹ and a kon of 433000 M⁻¹ s⁻¹. In assay [6], this substance came in with a Kd of 1.71 nM, a koff of 0.00101 s⁻¹ and a kon of 590000 M⁻¹ s⁻¹. The koff in assay [2] stood at 0.00121 s⁻¹. In assay [3], this substance yielded an MFI at 0 nM mAb (background) of 115 MFI, an MFI at 0.6 nM mAb of 7560 MFI, an MFI at 6 nM mAb of 54100 MFI and an MFI at 60 nM mAb of 200000 MFI. Besides, in assay [4], the koff is 0.00171 s⁻¹.
Regarding C33B75 (antibody), in assay [1], the MFI at 0 nM mAb (background) is 124 MFI, the MFI at 0.6 nM mAb came to 1710 MFI, the MFI at 6 nM mAb is 5580 MFI and the MFI at 60 nM mAb worked out at 12200 MFI. In assay [5], the Kd is 11.4 nM, the koff is 0.00441 s⁻¹ and the on-rate (kon) is 385000 M⁻¹ s⁻¹. Also, in assay [6], the Kd was 2.15 nM, the koff came out at 0.00132 s⁻¹ and the kon was 616000 M⁻¹ s⁻¹. The substance also registered a dissociation rate constant (koff) in assay [2] of 0.0012 s⁻¹. In assay [3], this substance gave an MFI at 0 nM mAb (background) of 95.9 MFI, an MFI at 0.6 nM mAb of 4520 MFI, an MFI at 6 nM mAb of 29600 MFI and an MFI at 60 nM mAb of 164000 MFI. The koff in assay [4] was determined as 0.00416 s⁻¹.
In assay [1], C33B95 (antibody) showed an MFI at 0 nM mAb (background) of 80.8 MFI, an MFI at 0.6 nM mAb of 1640 MFI, an MFI at 6 nM mAb of 9590 MFI and an MFI at 60 nM mAb of 14800 MFI. In assay [5], this substance showed a Kd of 15.4 nM, a koff of 0.0074 s⁻¹ and a kon of 482000 M⁻¹ s⁻¹. Also, in assay [6], the Kd turned out to be 9.56 nM, the koff is 0.00806 s⁻¹ and the kon was 844000 M⁻¹ s⁻¹. In assay [2], this substance returned a koff of 0.00698 s⁻¹. Further, in assay [3], the MFI at 0 nM mAb (background) was determined as 87.4 MFI, the MFI at 0.6 nM mAb was found to be 6400 MFI, the MFI at 6 nM mAb worked out at 44400 MFI and the MFI at 60 nM mAb was determined as 155000 MFI. For the same substance, the koff in assay [4] was found to be 0.00599 s⁻¹.

Source of the values: patent US20230322924A1.
